Measured values taken from PubChem BioAssay (NCI).
Several values for one entry are separate records, joined by “and”; a condition that tells them apart may be missing. Equal values may be shown once. This is a selection; strong and weak results do not stand in their true shares. Some tests of the compounds listed are not included; inactive here does not mean inactive elsewhere.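 A percent growth of 40 corresponds to 60% growth inhibition; 0 means no net growth; -100 means all cells died. Active threshold: below 10.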 Activity calls are given as the source filed them.

Assays:
Assay in all cases: NCI-60 one-dose screen, 48 h (100 = growth as untreated, 0 = no growth, -100 = all killed)
Settings in all cases: 10 µM
[1] = tested on: MOLT-4 leukemia
[2] = tested on: RPMI-8226 leukemia
[3] = tested on: OVCAR-5 ovarian
[4] = tested on: OVCAR-4 ovarian
[5] = tested on: SK-OV-3 ovarian
[6] = tested on: OVCAR-3 ovarian
[7] = tested on: HS 578T breast
[8] = tested on: NCI/ADR-RES ovarian
[9] = tested on: T-47D breast
[10] = tested on: BT-549 breast
[11] = tested on: MDA-MB-435 melanoma
[12] = tested on: SW-620 colon
[13] = tested on: MCF7 breast
[14] = tested on: HCT-116 colon
[15] = tested on: KM12 colon
[16] = tested on: SR leukemia
[17] = tested on: OVCAR-8 ovarian
[18] = tested on: IGROV1 ovarian
[19] = tested on: HCC-2998 colon

Measured: growth

O=C(OCCN1CCCC1)C(O)(c1ccccc1)c1ccccc1
inactive: [1] 115% | [2] 95.7% | [3] 102% | [4] 111% | [5] 96.7% | [6] 117% | [7] 115% | [8] 106% | [9] 96.7% | [10] 105% | [11] 110% | [12] 109% | [13] 107% | [14] 110% | [15] 109%

COc1ccc(N=C=S)cc1CN(CCCl)CCCl
inactive: [1] 21.1% | [16] 22.5% | [2] 72.7% | [17] 58.7% | [3] 115% | [4] 96% | [5] 65.6% | [18] 77.2% | [6] 75.3% | [7] 92.7% | [8] 76.8% | [9] 42.6% | [10] 71.2% | [11] 88.3% | [12] 53.5% | [13] 32.9% | [14] 63.7% | [19] 71.7% | [15] 87.9%

Fc1cccc(CN(CCCl)CCCl)c1
active: [16] 3.67%
inactive: [1] 80.3% | [2] 99.1% | [17] 96.3% | [3] 112% | [4] 104% | [5] 97.5% | [18] 76.4% | [6] 95.1% | [7] 110% | [8] 93.4% | [9] 98.6% | [10] 93.8% | [11] 98.1% | [12] 90% | [13] 76.2% | [14] 90.5% | [19] 85.7% | [15] 104%

COCc1c(CN(CCCl)CCCl)cnc(C)c1O
inactive: [1] 101% | [16] 71.5% | [2] 108% | [17] 101% | [3] 113% | [4] 106% | [5] 108% | [18] 95.8% | [6] 106% | [7] 101% | [8] 102% | [9] 102% | [10] 100% | [11] 104% | [12] 92.6% | [13] 85.1% | [14] 95.7% | [19] 103% | [15] 107%

Cc1cc2nc(CN(CCCl)CCCl)[nH]c2cc1C
inactive: [1] 36.9% | [2] 93.2% | [17] 81.7% | [3] 105% | [4] 98.2% | [5] 87.5% | [6] 95.7% | [7] 92.9% | [8] 87.6% | [9] 81.4% | [10] 101% | [11] 114% | [12] 67.1% | [13] 51.9% | [14] 74.5% | [19] 66% | [15] 89.7%
active: [16] -9.8%

N#CC(C#N)=Cc1cccc(Br)c1
inactive: [1] 101% | [2] 97% | [17] 104% | [3] 104% | [4] 102% | [5] 104% | [18] 113% | [6] 110% | [7] 96.2% | [8] 109% | [9] 89% | [10] 99% | [11] 104% | [12] 102% | [13] 96.6% | [14] 94.1% | [19] 108% | [15] 108%

CCNCCCl
inactive: [1] 115% | [16] 109% | [2] 104% | [17] 110% | [3] 92% | [4] 106% | [5] 111% | [18] 122% | [6] 92.8% | [8] 112% | [9] 120% | [10] 112% | [11] 99.1% | [12] 99.1% | [13] 95.1% | [14] 106% | [19] 122% | [15] 95.2%

N#CC(C#N)=Cc1ccc(Br)cc1
inactive: [1] 97.9% and 110% | [16] 99.6% | [2] 102% and 103% | [17] 115% and 107% | [3] 109% and 115% | [4] 112% and 107% | [5] 108% and 115% | [18] 115% | [6] 108% and 112% | [7] 112% and 108% | [8] 103% and 104% | [9] 101% and 96.5% | [10] 114% and 123% | [11] 103% and 111% | [12] 104% and 118% | [13] 99.4% and 96.4% | [14] 94% and 106% | [19] 111% and 95.6% | [15] 104%

CN(CCBr)CCBr
inactive: [1] 80.6% | [16] 12.8% | [2] 95.5% | [17] 96.4% | [3] 106% | [4] 89.2% | [5] 115% | [18] 79.2% | [6] 104% | [7] 107% | [8] 107% | [9] 84.6% | [10] 94.7% | [11] 99.9% | [12] 82.5% | [13] 72.1% | [14] 86.9% | [19] 100% | [15] 106%

ClCCN(CCCl)C1CCCCC1
inactive: [1] 88.5% | [16] 88.8% | [2] 102% | [17] 99.7% | [3] 98.9% | [4] 101% | [5] 107% | [18] 88.6% | [7] 102% | [8] 95.2% | [9] 100% | [10] 109% | [11] 97.2% | [12] 93.6% | [13] 92.1% | [14] 102% | [19] 103% | [15] 100%

BrCCN(CCBr)Cc1ccccc1
inactive: [1] 100% | [16] 97% | [2] 97.4% | [17] 108% | [3] 86% | [4] 96.9% | [5] 114% | [18] 116% | [6] 101% | [8] 111% | [9] 108% | [10] 104% | [11] 99.5% | [12] 103% | [13] 99% | [14] 112% | [19] 109% | [15] 115%

ClCCN(CCCl)Cc1cc(Cl)cc(Cl)c1
inactive: [1] 18.3% | [2] 70.6% | [17] 70.1% | [3] 105% | [4] 88.3% | [5] 65.3% | [18] 66% | [6] 86.2% | [7] 95.4% | [8] 76.8% | [9] 65.2% | [10] 84.5% | [11] 76.2% | [12] 58.3% | [13] 44% | [14] 62.2% | [19] 73.8% | [15] 89.9%
active: [16] 6.6%
